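All cell lines were grown in 96-well plates and treated with compound for 48 hours. The concentration for 50% growth inhibition is given as GI50. Definition used: TGI = concentration required for complete inhibition of growth.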
Tests used:
Test in all cases: NCI anticancer screen, dose series, 48 h
786-0 renal = test system: 786-0 renal
A549 NSCLC = test system: A549 NSCLC
ACHN renal = test system: ACHN renal
CAKI-1 renal = test system: CAKI-1 renal
CCRF-CEM leukemia = test system: CCRF-CEM leukemia
COLO 205 colon = test system: COLO 205 colon
DU-145 prostate = test system: DU-145 prostate
EKVX NSCLC = test system: EKVX NSCLC
HCC-2998 colon = test system: HCC-2998 colon
HCT-116 colon = test system: HCT-116 colon
HCT-15 colon = test system: HCT-15 colon
HL-60(TB) leukemia = test system: HL-60(TB) leukemia
HOP-62 NSCLC = test system: HOP-62 NSCLC
HOP-92 NSCLC = test system: HOP-92 NSCLC
HS 578T breast = test system: HS 578T breast
HT29 colon = test system: HT29 colon
IGROV1 ovarian = test system: IGROV1 ovarian
K-562 leukemia = test system: K-562 leukemia
KM12 colon = test system: KM12 colon
LOX IMVI melanoma = test system: LOX IMVI melanoma
M14 melanoma = test system: M14 melanoma
MALME-3M melanoma = test system: MALME-3M melanoma
MCF7 breast = test system: MCF7 breast
MDA-MB-231 breast = test system: MDA-MB-231 breast
MDA-MB-435 = test system: MDA-MB-435
MDA-N = test system: MDA-N
MOLT-4 leukemia = test system: MOLT-4 leukemia
NCI-H226 lung = test system: NCI-H226 lung

n1[nH]nc2c1c1n[nH]nc1c1n[nH]nc21
GI50 (786-0 renal): > 100 µM | TGI (786-0 renal): > 100 µM | GI50 (A549 NSCLC): > 100 µM | TGI (A549 NSCLC): > 100 µM | GI50 (ACHN renal): > 100 µM | TGI (ACHN renal): > 100 µM | GI50 (CAKI-1 renal): > 100 µM | TGI (CAKI-1 renal): > 100 µM | GI50 (CCRF-CEM leukemia): > 100 µM | TGI (CCRF-CEM leukemia): > 100 µM | GI50 (COLO 205 colon): > 100 µM | TGI (COLO 205 colon): > 100 µM | GI50 (DU-145 prostate): > 100 µM | TGI (DU-145 prostate): > 100 µM | GI50 (EKVX NSCLC): > 100 µM | TGI (EKVX NSCLC): > 100 µM | GI50 (HCC-2998 colon): > 100 µM | TGI (HCC-2998 colon): > 100 µM | GI50 (HCT-116 colon): > 100 µM | TGI (HCT-116 colon): > 100 µM | GI50 (HCT-15 colon): > 100 µM | TGI (HCT-15 colon): > 100 µM | GI50 (HL-60(TB) leukemia): > 100 µM | TGI (HL-60(TB) leukemia): > 100 µM | GI50 (HOP-62 NSCLC): > 100 µM | TGI (HOP-62 NSCLC): > 100 µM | GI50 (HOP-92 NSCLC): > 100 µM | TGI (HOP-92 NSCLC): > 100 µM | GI50 (HS 578T breast): > 100 µM | TGI (HS 578T breast): > 100 µM | GI50 (HT29 colon): > 100 µM | TGI (HT29 colon): > 100 µM | GI50 (IGROV1 ovarian): > 100 µM | TGI (IGROV1 ovarian): > 100 µM | GI50 (K-562 leukemia): > 100 µM | TGI (K-562 leukemia): > 100 µM | GI50 (KM12 colon): > 100 µM | TGI (KM12 colon): > 100 µM | GI50 (LOX IMVI melanoma): > 100 µM | TGI (LOX IMVI melanoma): > 100 µM | GI50 (M14 melanoma): > 100 µM | TGI (M14 melanoma): > 100 µM | GI50 (MALME-3M melanoma): > 100 µM | TGI (MALME-3M melanoma): > 100 µM | GI50 (MCF7 breast): > 100 µM | TGI (MCF7 breast): > 100 µM | GI50 (MDA-MB-231 breast): > 100 µM | TGI (MDA-MB-231 breast): > 100 µM | GI50 (MDA-MB-435): > 100 µM | TGI (MDA-MB-435): > 100 µM | GI50 (MDA-N): > 100 µM | TGI (MDA-N): > 100 µM | GI50 (MOLT-4 leukemia): > 100 µM | TGI (MOLT-4 leukemia): > 100 µM | GI50 (NCI-H226 lung): > 100 µM | TGI (NCI-H226 lung): > 100 µM

From PubChem BioAssay (NCI)
